Literature values in US20130142868A1 (priority 2010, published 2013).

Conditions: in vivo; cited from earlier work

Interferon β: protein of a cited intranasal study (Thorne et al., 2008)
blood levels: with low blood
levels of protein in most brain regions: effective levels of
